Screening results: PubChem, National Center for Advancing Translational Sciences (NCATS)
An excerpt weighted towards active compounds, which were near 2.3% of everything screened.
Mito fusion act: mitochondrial division inhibition or fusion activation; AID 485298; S. cerevisiae fusion-defective mutant growth rescue, CellTiterGlo 48 h; actives 0.23% (n = 320,000); Potency, µM (series often up to 46.1 µM), hits mostly activators; also: nearly all actives have a fitted effect of over 45% in size
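S. cerevisiae fusion-defective temperature-sensitive mutants (e.g. fzo1-1, mgm1-5) grown 48 h at 37C in YPEG (ethanol/glycerol non-fermentable) medium with 23 nl compound per well; growth rescue read as CellTiterGlo luminescence.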
miR-21 FLuc: miR-21 reporter, rising signal | HeLa miR-21 FLuc reporter, luciferase, 48 h | Potency, µM (top dose mostly 38.3 µM) | 340,000 tested, under 10 active | AID 2288; active = well fitted rising curve with a large enough effect; inconclusive = small, poorly fitted or top-dose-only effect; inactive = no such curve, though single readings can be large or run the other way;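 note: miR-21 action dims this reporter so a rising signal means less miR-21 action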
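HeLa miR-21-FLuc reporter line, endogenous miR-21; 2000 cells/well in DMEM/10% FBS; compound titration up to ~40uM final, 48 h, 37 degree Celsius; luciferase detection reagent, 15 min lysis, CCD luminescence.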
Nrf2 activator: activates Nrf2 signaling | AID 624171 | AREc32 ARE-luciferase reporter (MCF7-derived line), luminescence, 24 h | Potency, µM (series often up to 46.1 µM), hits mostly activators | actives 0.31% (n = 410,000); also: nearly all actives have a fitted effect of over 65% in size
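AREc32 cells carrying an ARE-driven firefly luciferase, 1000 cells/well in OPTI-MEM with 5% FBS, dosed after overnight attachment and incubated 24 hr at 37 deg C. Steady-Glo luminescence read after 30 min at RT.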
Nrf2 block: Nrf2 pathway inhibition | A549 ARE-Fluc reporter, luciferase luminescence, 18-24 h | Potency, µM (titrated, usually from 46 µM), actives largely listed as inhibitors | actives 2.1% (n = 360,000) | AID 504444; also: nearly all actives have a fitted effect of over 60% in size
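A549 ARE_Fluc cells, 5000/well, 5% FBS OPTI-MEM; compounds in dose-response, 18-24 h at 37 °C/5% CO2; CellTiter-Fluor viability read (Ex 405/Em 525), then BugLite luciferase luminescence = Nrf2 activity.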
Glioma ERSR ind: ER stress response induction in glioma. U87-MG GRP78 promoter luciferase reporter, 16 h. actives 0.02% (n = 420,000). Potency, µM, most hits filed as activators. AID 602332; also: series mostly up to about 76 µM; nearly all actives have a fitted effect of over 35% in size
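Stably transfected U87-MG human glioma cells carrying a GRP78-based luminescent sensor were seeded at 1000 cells/well, pin-dosed with compounds and incubated 16 h. Luciferase reagent was then added, and end-point luminescence was read after 10 min at room temperature.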
A549 tox: A549 cytotoxicity, counter-screen for Nrf2 inhibitors; A549 ARE-Fluc cells, CellTiter-Fluor viability, 18-24 h; Potency, µM (top dose mostly 46 µM), hits mostly inhibitors; actives 0.16% (n = 390,000); AID 504648
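A549 ARE-Fluc cells in 5% FBS OPTI-MEM, 5000 cells/well, rested 2 h then exposed to compounds in concentration-response for 18-24 h at 37 °C. Viability by CellTiter-Fluor fluorescence (Ex 405/Em 525) after 30 min; luciferase luminescence (BugLite, 15 min, RT) read afterwards.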
Of the large screens only hits and unclear results are named; the others gave an inactive call. Unless noted, calls follow the shape of the dose curve; as a rule, active = well fitted curve in the direction sought with a large enough effect; inconclusive = small, poorly fitted or top-dose-only effect, or another doubt; inactive = no such curve, though single readings can be large; an effect the other way counts as inactive or inconclusive.

O=C(COCc1cc(-c2ccc(F)cc2)on1)Nc1cc(Cl)ccc1O	Nrf2 activator 6.3µM, Nrf2 block inconclusive (no result: Mito fusion act)
Clc1ccc(N2CCN(/N=C/c3cccnc3)CC2)cc1	Nrf2 block 8.2µM
COC(=O)c1c(NC(=O)c2cc3ccccc3c(=O)o2)sc2c1CCCC2	Nrf2 activator 13µM (no result: Mito fusion act)
CCCOC(=O)c1c(NC(=O)c2cc3ccccc3c(=O)o2)sc2c1CCC(C)C2 (configuration not stated)	none (no result: Mito fusion act)
CC1=CC2=NC(=O)/C(=C\c3cccn3CCOc3cc(C)cc(C)c3)C(=N)N2O1	Mito fusion act 20µM
O=C(NCCc1nc2ccccc2n1Cc1ccccc1)c1ccco1	none (no result: Mito fusion act)
O=C(Nc1nc2ccccc2n1Cc1ccccc1)c1ccco1	Nrf2 block 16µM
CCC(=O)Nc1nc2ccccc2n1Cc1ccc(Cl)cc1	Nrf2 block 21µM
CC(C)=C1Cc2ccccc2C1=O	none
Cc1ccc(NC(=O)c2ccc(NCCN)c([N+](=O)[O-])c2)cc1Cl	none
CCNc1ccc(C(=O)Nc2ccc3nc(C)sc3c2)cc1[N+](=O)[O-]	Mito fusion act 35µM
Cc1nc2cc(NC(=O)c3ccc([N+](=O)[O-])s3)ccc2s1	Nrf2 block 6.5µM
CC(=O)Nc1ccc2nc(NC(=O)c3ccc([N+](=O)[O-])s3)sc2c1	none (no result: Nrf2 activator, Nrf2 block, Glioma ERSR ind, A549 tox)
Nc1nc2ccccc2cc1-c1cccs1	Nrf2 block inconclusive
c1csc(-c2ccc3ccccc3n2)c1	Nrf2 activator 18µM, Nrf2 block inconclusive
O=C(NCCc1cccs1)c1ccc(CS(=O)Cc2cccc(Cl)c2)o1 (configuration not stated)	none (no result: Mito fusion act, miR-21 FLuc, Nrf2 block, A549 tox)
Cc1nn(-c2ccccc2)c2c1C1(C(=O)Nc3ccccc31)N1C(=N2)Sc2ccccc21 (configuration not stated)	Mito fusion act 18µM, A549 tox inconclusive (no result: Nrf2 block)
Cc1nn(-c2ccc(F)cc2)c(N)c1C1(O)C(=O)Nc2ccccc21 (configuration not stated)	none
CCOc1ccc(CN(C)C(=O)c2ccc3c(c2)NC(=O)C(C)S3)cc1OC (configuration not stated)	Nrf2 block 16µM (no result: miR-21 FLuc)
COc1ccccc1N1C(=O)C(Cl)=C(Nc2ccccc2O)C1=O	Nrf2 activator 13µM
Cc1cccc(NS(=O)(=O)c2ccc3c(c2)CCN3C(=O)CCC(=O)O)c1	none
Cc1cccc(NS(=O)(=O)c2ccc(NC(=O)N3CCCC3)cc2)c1	none (no result: Mito fusion act, Nrf2 block)
Cc1cccc(NS(=O)(=O)c2ccc(NC(=O)N3CCCCC3)cc2)c1	Nrf2 block 18µM
Cc1cccc(NS(=O)(=O)c2ccc3c(c2)CCN3C(=O)C2CCC2)c1	Nrf2 block 15µM (no result: Mito fusion act)
O=C(CC1CCCC1)NCCS(=O)(=O)N1CCN(c2ccccc2)CC1	none (no result: Mito fusion act, miR-21 FLuc, Nrf2 block, A549 tox)
COc1ccccc1Cc1c(-c2ccco2)nc2cc(C)c(Br)c(C)n12	Nrf2 activator 11µM (no result: Mito fusion act, miR-21 FLuc, Nrf2 block, Glioma ERSR ind, A549 tox)
CCCOC(=O)/C(=C\C=C\c1ccco1)NC(=O)c1ccccc1	Nrf2 activator 13µM, Nrf2 block inconclusive
O=C(COC(=O)c1cc[n+]([O-])cc1)Nc1c(Cl)cccc1C(F)(F)F	none (no result: miR-21 FLuc)
CNC(=O)CSc1nc2cc(S(=O)(=O)Nc3ccccc3OC)ccc2o1	none
COc1ccccc1NS(=O)(=O)c1ccc2oc(SCc3ccc(C#N)cc3)nc2c1	miR-21 FLuc inconclusive, Nrf2 block 16µM
CCN(CC)S(=O)(=O)c1ccc2oc(SCC(=O)NC3CC3)nc2c1	none
CCN(CC)S(=O)(=O)c1ccc2oc(SCc3ccc(F)cc3)nc2c1	Nrf2 block 18µM
O=C1C2C(c3ccccc3)CC=CC2C(c2cccc(Br)c2)N1Cc1ccccc1 (configuration not stated)	Nrf2 block inconclusive (no result: Mito fusion act, miR-21 FLuc, Nrf2 activator)
COc1ccc(CCN(C(=O)C(F)(F)F)C(C(=O)NC2CCCCC2)c2ccc(C)s2)cc1 (configuration not stated)	Nrf2 block inconclusive
CN(Cc1cc([N+](=O)[O-])c2cccnc2c1O)C1CCCCC1	none (no result: Nrf2 activator, Nrf2 block, Glioma ERSR ind, A549 tox)
O=[N+]([O-])c1cc(CN2CCN(c3ccccc3)CC2)c(O)c2ncccc12	Nrf2 block 2.6µM, A549 tox inconclusive
Oc1c(Cl)cc(CN2CCOCC2)c2cccnc12	Mito fusion act inconclusive, Nrf2 block inconclusive, A549 tox inconclusive (no result: miR-21 FLuc)
O=[N+]([O-])c1cc(CN2CCOCC2)c2cccnc2c1O	Nrf2 block 23µM, A549 tox inconclusive
CCN(CC)S(=O)(=O)c1cccc(C(=O)N/N=C/c2ccc([N+](=O)[O-])o2)c1	Nrf2 block inconclusive
COc1ccc(N=C2NC(=O)/C(=C\C=C\c3ccco3)S2)cc1	Nrf2 activator 13µM
COc1cc(C2C=C(C34CC5CC(CC(C5)C3)C4)NC(=S)N2)cc(OC)c1OC (configuration not stated)	Nrf2 block 23µM
COc1ccc(OC)c(C2C=C(C34CC5CC(CC(C5)C3)C4)NC(=S)N2)c1 (configuration not stated)	Mito fusion act inconclusive, Nrf2 block inconclusive
COc1ccc(C(=O)C(OC(=O)CNC(=O)c2ccco2)c2ccccc2)cc1 (configuration not stated)	none
CCOc1ccc(N2C(=O)Nc3ccc(Br)cc3C2(O)C(=O)NCCCN(C)C)cc1 (configuration not stated)	none
CC(=O)Nc1cc(O)c2nonc2c1O	Nrf2 block 21µM, A549 tox 6.5µM (no result: Mito fusion act, miR-21 FLuc, Nrf2 activator)
CC(=O)Nc1c(O)cc(Br)c2nonc12	none (no result: Mito fusion act, miR-21 FLuc, Nrf2 activator)
CC1CCN(c2ccc(C(=O)Nc3ccc4c(c3)OCO4)cc2[N+](=O)[O-])CC1	Mito fusion act inconclusive, Nrf2 block 9.2µM
CC1CCCN(c2ccc(C(=O)NCc3ccc4c(c3)OCO4)cc2[N+](=O)[O-])C1 (configuration not stated)	none
CC1CCCN(c2ccc(C(=O)Nc3ccc4c(c3)OCO4)cc2[N+](=O)[O-])C1 (configuration not stated)	Mito fusion act 18µM, Nrf2 block inconclusive
O=C(COC(=O)c1ccc(N2CCOCC2)c([N+](=O)[O-])c1)Nc1ccc2c(c1)OCO2	none
CC1=C(C(=O)N(C)C)CC(CC(=O)NC2CCCC2)C(=O)N1Cc1ccc(F)cc1 (configuration not stated)	none (no result: Mito fusion act, miR-21 FLuc, Nrf2 block, A549 tox)
[2H]C(CCOS(N)(=O)=O)c1ccc(C(C)(C)C)cc1 (configuration not stated)	Nrf2 block 5.2µM
CCN(c1ccc(NC(=O)COC(=O)C2CCN(c3ccc(C(F)(F)F)cn3)CC2)cc1)C(C)C	none (no result: Mito fusion act, miR-21 FLuc)
O=C(c1cccc([N+](=O)[O-])c1)N1CCN(c2n[nH]c(=O)[nH]c2=O)CC1	none
N#CCCn1cc(C(=O)Nc2ccc(C(=O)O)cc2)c(-c2cccs2)n1	none
